# Test results taken from PubChem BioAssay AID434970 (Sanford-Burnham Center for Chemical Genomics, 2010).
# The entries are a selection whose mix differs from that of the whole data set. Activity calls are given as the source filed them. Cut-off read from the data, not from the text of the source: active = activity change below about -85%; inactive = the rest.
# Tested on: intestinal alkaline phosphatase [Mus musculus]
# Experiment: mouse intestinal phosphatase enzyme activation – biochemical, luminescence, single concentration, confirmation (AID 434970)
# Conditions: purified mouse IAP, CDP-Star luminescence, 30 min; at 10 µM; hits give low values
row,SMILES,"activity change, negative = activation"
1,COc1ccc(OP(C)(=O)Nc2cccc(F)c2)cc1 (centres undefined),inactive: 2.95%
2,CCOP(C)(=S)SCC(=O)NC(C)(CC)C(=O)O (centres undefined),inactive: 9.6%
3,COc1ccc(OP(C)(=O)Nc2cccc(Br)c2)cc1 (centres undefined),inactive: -6.45%
4,CCN(CC)CC(O)COC(=O)C(O)(c1ccccc1)C1CCCCC1 (centres undefined),inactive: 4.6%
